Measured values reported in ChEMBL document CHEMBL2177030.

How the values were obtained:
[1] = target: T1, Gastric triacylglycerol lipase (Canis lupus familiaris) (UniProt P80035); assay: Inhibition of dog recombinant gastric lipase expressed in transgenic maize at 200 molar excess compound concentration pre-incubated for 2 hrs with enzyme before substrate addition by pH-stat technique; assay type: single protein; details: Stomach
T1 sequence (whole entry): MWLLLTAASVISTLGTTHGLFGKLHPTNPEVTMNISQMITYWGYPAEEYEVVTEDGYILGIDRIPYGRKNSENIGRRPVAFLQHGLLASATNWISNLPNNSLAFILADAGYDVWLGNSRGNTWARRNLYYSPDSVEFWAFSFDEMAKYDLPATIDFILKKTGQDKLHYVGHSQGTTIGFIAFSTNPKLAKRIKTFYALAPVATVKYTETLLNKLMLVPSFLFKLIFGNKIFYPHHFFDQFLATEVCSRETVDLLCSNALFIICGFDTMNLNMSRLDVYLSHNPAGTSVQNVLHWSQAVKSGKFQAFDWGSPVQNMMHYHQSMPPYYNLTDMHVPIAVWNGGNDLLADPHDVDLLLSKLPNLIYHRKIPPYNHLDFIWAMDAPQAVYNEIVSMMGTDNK

[2] = target: T2, Pancreatic triacylglycerol lipase (Homo sapiens) (UniProt P16233); assay: Inhibition of human recombinant pancreatic lipase expressed in Pichia pastoris at 200 molar excess compound concentration pre-incubated for 2 hrs with enzyme before substrate addition by pH-stat technique
T2 sequence (whole entry): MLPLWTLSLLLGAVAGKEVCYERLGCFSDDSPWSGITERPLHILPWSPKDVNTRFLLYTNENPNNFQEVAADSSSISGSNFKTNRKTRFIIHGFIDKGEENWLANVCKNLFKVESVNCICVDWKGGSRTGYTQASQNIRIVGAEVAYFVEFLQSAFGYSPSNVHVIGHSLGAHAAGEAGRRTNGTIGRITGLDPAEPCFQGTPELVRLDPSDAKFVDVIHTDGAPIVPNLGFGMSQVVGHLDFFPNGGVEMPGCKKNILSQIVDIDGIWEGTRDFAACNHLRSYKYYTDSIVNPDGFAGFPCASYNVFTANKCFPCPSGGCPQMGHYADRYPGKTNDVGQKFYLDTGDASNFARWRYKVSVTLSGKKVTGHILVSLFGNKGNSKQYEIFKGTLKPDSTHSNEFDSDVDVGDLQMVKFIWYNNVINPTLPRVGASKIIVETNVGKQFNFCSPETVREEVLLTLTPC

[3] = target: T3, Pancreatic lipase-related protein 2 (Cavia porcellus) (UniProt P81139); assay: Inhibition of guinea pig recombinant PLRP2 expressed in Aspergillus oryzae at 200 molar excess compound concentration pre-incubated for 2 hrs with enzyme before substrate addition by pH-stat technique
T3 sequence (whole entry): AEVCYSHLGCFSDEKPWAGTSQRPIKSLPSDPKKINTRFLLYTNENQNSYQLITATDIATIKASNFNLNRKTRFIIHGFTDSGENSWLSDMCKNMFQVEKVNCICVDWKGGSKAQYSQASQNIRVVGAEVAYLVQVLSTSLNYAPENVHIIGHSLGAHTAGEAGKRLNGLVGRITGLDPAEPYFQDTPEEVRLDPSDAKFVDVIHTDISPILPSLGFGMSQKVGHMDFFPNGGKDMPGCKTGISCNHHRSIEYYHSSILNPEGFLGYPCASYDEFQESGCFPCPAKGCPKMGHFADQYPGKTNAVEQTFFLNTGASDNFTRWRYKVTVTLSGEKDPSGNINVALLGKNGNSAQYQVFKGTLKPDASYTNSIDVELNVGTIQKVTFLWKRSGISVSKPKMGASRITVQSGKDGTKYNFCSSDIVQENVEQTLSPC

Measured: inhibition

COC(=O)C1=C(C)OP(=O)(OC)CCC1c1ccccc1 (stereo not drawn)
inactive: all assays above

The source made the active and inactive calls.
